{
  "source": "patent US20250171404A1",
  "about": "“PCNA INHIBITORS AND USES THEREOF” (CITY OF HOPE, priority 2022, published 2025)",
  "test_system": "SK-N-AS cells heterozygous or homozygous of the mutant PCNA allele (L47V)",
  "assay": "Growth of PCNA L47V mutant cell lines (CRISPR)",
  "settings": "compared to wildtype parent SK-N-AS cells; 72 hrs",
  "data": [
    {"smiles": "COc1cccc(Oc2ccccc2NC(=O)CNC(=O)c2cccc3ccccc23)c1", "note": "[AOH1996, N-(2-((2-(3-methoxyphenoxy)phenyl)amino)-2-oxoethyl)-1-naphthamide]", "values": [
      {"measurement": "sensitivity of L47V PCNA mutant cell lines to growth inhibition", "result": "less sensitive to growth inhibition by AOH1996"}
    ]}
  ]
}
